Laboratory results as given in US20050203174A1, “Combination therapies using leptomycin B” (Kosan Biosciences, Inc., priority 2004, published 2005).

Tested on: colon cancer cell line DLD-1
Experiment: Cell viability assay (CellTiter-Glo) and combination effect analysis of leptomycin B plus co-agent
Format: cell-based, Human
Conditions: combination with leptomycin B, DLD-1 cells, average CI over fraction affected 0.2 to 0.9
Description: The efficacy of a combination of leptomycin B and specific chemotherapeutic co-agents was determined. The additive, synergistic, or antagonistic effect of the combination of leptomycin B and a co-agent was calculated for each administration regimen using Calcusyn software (Biosoft, Cambridge, United Kingdom). This software calculates a combination index using the following algorithm: CI=[D]1/[Dx]1+[D]2/[Dx]2 where • CI is the combination index; • [D]1 and [D]2 are the concentrations of the two agents being tested (i.e., LMB and the co-agent) that, in combination provide a response of x % in the assay; and • [Dx]1 and [Dx]2 are the concentrations of the two agents that, when used alone, produce a response of x % in the assay.
A CI value of one means the combined effect of the two agents is additive. A CI value of less than one means that the two agents act synergistically. A CI value of greater than one means that the two agents act antagonistically.
The area under the curve where the fraction affected of cells (FA) ranged from 0.2 to 0.9 was calculated, to generate average CI values as shown in Table 1 for colon cancer cell line DLD-1.
Human colon adenocarcinoma cell line, DLD-1, was obtained from American Type Culture Collection (Manassas, Va.). […] Leptomycin B was produced by fermentation of a high producing isolate from Streptomyces sp. […] LMB is also available from commercial sources, such as Sigma-Aldrich. Other anti-cancer agents were either purchased commercially (e.g., from Sigma Chemical Co. (St. Louis, Mo.) or from Sequoia Research Products (Oxford, UK)).
Cells were seeded in duplicate in 96-well microtiter plates at a density of 4,000 cells per well and allowed to attach overnight. […] Cell viability was determined using the CellTiter-Glo luminescent cell viability assay (Promega). […] Cell viability was determined by the CellTiter-Glo luminescent cell viability assay. Synergism, additivity, or antagonism was determined by median effect analysis using the combination index (CI) calculated using Calcusyn (Biosoft, Cambridge, UK), as described above.

trastuzumab
Combination Index, LMB First (24 hours of LMB, then drug added and incubated for 48 hours): 0.84 ± 0.09 | Combination Index, Co-Agent First (drug alone for 24 hours followed by addition of LMB for 48 hours): 0.99 ± 0.07 | Combination Index, Simultaneous (simultaneous exposure to LMB and drug for 72 hours, constant ratio of IC50s): 0.87 ± 0.07
